Vapor pressure values, as collected for the OPERA models

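These are experimental values that the OPERA curators gathered from public databases to train and test their QSAR models. The files give a single number for a compound and property, which may rest on several reports. How each value was measured is not recorded, so precision varies. The measured form (salt, isomer or mixture) is not always the one drawn. Unmarked limits or estimates from the upstream databases cannot be ruled out.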

Vapor pressures (log10 mmHg) refer to near room temperature, 15 to 30 °C; higher is more volatile.
"via" names the databases from which the curators took the value.

Cc1cc(Cc2cc(C)cc(C3CCCCC3)c2O)c(O)c(C2CCCCC2)c1 [2,2'-Methanediylbis(6-cyclohexyl-4-methylphenol)] is reported with log vapor pressure -10.15 (log10 mmHg) (via eChemPortal).
COC(=O)c1ccc(C)cc1 [Methyl 4-methylbenzoate] is reported with log vapor pressure -0.979 (log10 mmHg) (via OFMPub).
CCCCNCC [N-Ethyl-N-butylamine] is reported with log vapor pressure 1.407 (log10 mmHg) (via eChemPortal).
CCCCC(CC)COC(=O)COc1ccc(Cl)cc1Cl (stereo not given) [2,4-D 2-EHE] is reported with log vapor pressure -3.445 (log10 mmHg) (via PubChem).
CCCC(=O)C(C)=O [2,3-Hexanedione] is reported with log vapor pressure -0.301 (log10 mmHg) (via PubChem).
CC1(C)[N-]C(=O)NC1=O.[Na+] [Sodium 5,5-dimethylhydantoin] is reported with log vapor pressure -5.979 (log10 mmHg) (via eChemPortal).
COc1c(Cl)c(Cl)cc(Cl)c1Cl is reported with log vapor pressure -2.495 (log10 mmHg) (via OCHEM).
CCCCCCCCCC=CCC1CC(=O)OC1=O (stereo not given) [(2-Dodecenyl)succinic anhydride] is reported with log vapor pressure -3.347 (log10 mmHg) (via eChemPortal).
FC(F)C(F)(F)COC(F)(F)C(F)(F)C(F)(F)F is reported with log vapor pressure 1.843 (log10 mmHg) (via ICF).
CC(O)c1ccccc1 (stereo not given) [alpha-Methylbenzyl alcohol] is reported with log vapor pressure -1 (log10 mmHg) (via eChemPortal).
CC/C=C\CCCCCCCCCCO [(Z)-Tetradec-11-enol] is reported with log vapor pressure -2.824 (log10 mmHg) (via OCHEM).
COc1cc(NS(=O)(=O)c2ccc(N)cc2)nc(OC)n1 [Sulfadimethoxine] is reported with log vapor pressure -8.801 (log10 mmHg) (via OCHEM).
CC(O)Cn1ccnc1 (stereo not given) [alpha-Methyl-1H-imidazole-1-ethanol] is reported with log vapor pressure -2.894 (log10 mmHg) (via eChemPortal).
CC(=O)O[Si](C)(OC(C)=O)OC(C)=O [Methylsilanetriyl triacetate] is reported with log vapor pressure -1.2 (log10 mmHg) (via eChemPortal).
COC(=O)NC[Si](C)(OC)OC [Methyl (dimethoxy(methyl)silyl)methylcarbamate] is reported with log vapor pressure -2.215 (log10 mmHg) (via eChemPortal).
CC1=CC(=O)c2ccccc2C1=O [Menadione] is reported with log vapor pressure -3.283 (log10 mmHg) (via eChemPortal).
CCCCCCOC1O[C@H](CO)[C@@H](O)[C@H](O)[C@H]1O (stereo partly drawn) [D-Glucopyranoside, hexyl] is reported with log vapor pressure -4.958 (log10 mmHg) (via eChemPortal).
CC(=O)O.CCCCCC1=C(O)CCC1CC(=O)OC (stereo not given) is reported with log vapor pressure -3.824 (log10 mmHg) (via eChemPortal).
CCCCC/C=C\C/C=C\C/C=C\C/C=C\CCCC(=O)OCC [5,8,11,14-Eicosatetraenoic acid, ethyl ester] is reported with log vapor pressure -6.165 (log10 mmHg) (via OCHEM).
COc1c(Cl)cc(Cl)c(OC)c1O [3,5-Dichloro-2,6-dimethoxyphenol] is reported with log vapor pressure -2.455 (log10 mmHg) (via OCHEM).
I/C=C/I [(E)-1,2-Diiodoethylene] is reported with log vapor pressure -0.23 (log10 mmHg) (via OCHEM).
CNC(=O)Nc1nc2ccccc2s1 [Benzthiazuron] is reported with log vapor pressure -5.011 (log10 mmHg) (via OCHEM).
Fc1ccc(C(c2ccc(F)cc2)N2CCNCC2)cc1 [1-(Bis(4-fluorophenyl)methyl)piperazine] is reported with log vapor pressure -4.821 (log10 mmHg) (via eChemPortal).
Cc1nc(C(F)(F)F)c(C(O)=Nc2c(Br)cc(OC(F)(F)F)cc2Br)s1 [Thifluzamide] is reported with log vapor pressure -11.12 (log10 mmHg) (via OCHEM).
c1ccc2[nH]cnc2c1 [Benzimidazole] is reported with log vapor pressure -5.625 (log10 mmHg) (via eChemPortal).
OCCN1CCCCC1 [1-Piperidineethanol] is reported with log vapor pressure -0.695 (log10 mmHg) (via eChemPortal).
CCOc1cc(COC)ccc1O [Phenol, 2-ethoxy-4-(methoxymethyl)-] is reported with log vapor pressure -4 (log10 mmHg) (via OCHEM).
C[Si]1(CCC(F)(F)F)O[Si](C)(CCC(F)(F)F)O[Si](C)(CCC(F)(F)F)O1 (stereo not given) is reported with log vapor pressure -0.213 (log10 mmHg) (via eChemPortal).
Nc1ccc(N)c([N+](=O)[O-])c1 [2-Nitro-1,4-phenylenediamine] is reported with log vapor pressure -4.252 (log10 mmHg) (via OCHEM).
C/C=C\C(C)C [2-pentene, 4-methyl-, (z)-] is reported with log vapor pressure 2.368 (log10 mmHg) (via OCHEM).
Clc1cc(Cl)c2c(Cl)ccc(Cl)c2c1 is reported with log vapor pressure -3.804 (log10 mmHg) (via OCHEM).
CCN(CC)CCOC(=O)CCCCC(=O)OCCN(CC)CC [Bis(2-(diethylamino)ethyl) adipate] is reported with log vapor pressure -5.587 (log10 mmHg) (via eChemPortal).
CO[Si](CC(C)CC(C)(C)C)(OC)OC (stereo not given) [Silane, trimethoxy(2,4,4-trimethylpentyl)-] is reported with log vapor pressure -0.657 (log10 mmHg) (via eChemPortal).
O=C([O-])[C@H](O)[C@@H](O)C(=O)[O-].[Sr+2] is reported with log vapor pressure -9.837 (log10 mmHg) (via eChemPortal).
C=CC(=O)OC(C(F)(F)F)C(F)(F)F [Hexafluoroisopropyl acrylate] is reported with log vapor pressure 1.8 (log10 mmHg) (via ChemicalBook).
O=C(O)C(O)c1ccccc1 (stereo not given) [Mandelic acid] is reported with log vapor pressure -6.339 (log10 mmHg) (via eChemPortal).
CO[Si](CCCNC1CCCCC1)(OC)OC [Geniosil GF 92] is reported with log vapor pressure -2.799 (log10 mmHg) (via eChemPortal).
[N-]=[N+]=C1C=C(S(=O)(=O)[O-])c2ccccc2C1=O.[Na+] is reported with log vapor pressure -4.954 (log10 mmHg) (via eChemPortal).

Extract of 6 entries:

CC(O)c1ccccc1 (stereo not given) [alpha-Methylbenzyl alcohol] is reported with log vapor pressure -1 (log10 mmHg) (via eChemPortal).
[N-]=[N+]=C1C=C(S(=O)(=O)[O-])c2ccccc2C1=O.[Na+] is reported with log vapor pressure -4.954 (log10 mmHg) (via eChemPortal).
C/C=C\C(C)C [2-pentene, 4-methyl-, (z)-] is reported with log vapor pressure 2.368 (log10 mmHg) (via OCHEM).
COc1c(Cl)c(Cl)cc(Cl)c1Cl is reported with log vapor pressure -2.495 (log10 mmHg) (via OCHEM).
CCCCC(CC)COC(=O)COc1ccc(Cl)cc1Cl (stereo not given) [2,4-D 2-EHE] is reported with log vapor pressure -3.445 (log10 mmHg) (via PubChem).
CC(=O)O.CCCCCC1=C(O)CCC1CC(=O)OC (stereo not given) is reported with log vapor pressure -3.824 (log10 mmHg) (via eChemPortal).

Data: OPERA 2.9 data sets, kmansouri/OPERA on GitHub.